Data taken from PubChem BioAssay AID1508602 (The Scripps Research Institute Molecular Screening Center, 2020).
This is a selection; strong and weak results do not stand in their true shares. The source made the active and inactive calls. Cut-off read from the data, not from the text of the source: active = activation above about 4.9%; inactive = the rest.

The chains behind the UniProt entries cited, without tags or fusion partners.
UniProt Q8TDV0, whole entry: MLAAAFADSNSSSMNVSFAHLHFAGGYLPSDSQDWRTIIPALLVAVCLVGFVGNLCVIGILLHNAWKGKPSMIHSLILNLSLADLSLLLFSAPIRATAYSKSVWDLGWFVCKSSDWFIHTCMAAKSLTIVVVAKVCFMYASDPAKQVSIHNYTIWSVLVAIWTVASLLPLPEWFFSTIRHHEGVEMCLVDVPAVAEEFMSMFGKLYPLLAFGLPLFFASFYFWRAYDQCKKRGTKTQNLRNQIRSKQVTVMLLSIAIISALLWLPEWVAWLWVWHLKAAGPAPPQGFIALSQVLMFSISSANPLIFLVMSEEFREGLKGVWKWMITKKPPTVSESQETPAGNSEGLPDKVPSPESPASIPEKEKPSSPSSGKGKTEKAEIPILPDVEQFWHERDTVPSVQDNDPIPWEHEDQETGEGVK

What follows are compounds tested against G-protein coupled receptor 151 (Homo sapiens) (UniProt Q8TDV0) (assay: activators of human GPR151, primary screen, cell-based, PathHunter beta-arrestin, luminescence (AID 1508602;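 note: 0% = median of compound wells and 100% = cells with positive control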)). Details: PathHunter beta-arrestin GPR151 cells, at 11.2 µM, hits give high values.

**Q.** For CN(CCCl)CCCl, which activation is on record?
**A.** inactive: 0.158%
